Assay results taken from ChEMBL document CHEMBL6096734, “Design, Synthesis and Anti-Inflammatory Evaluation of 3-Substituted 5-Amidobenzoate Derivatives as Novel P2Y14 Receptor Antagonists via Structure-Guided Molecular Hybridization” (J Med Chem, 2025).
The source made the active and inactive calls.

Legend:
Assay type in all cases: functional, cell-based
[1] = test system: RAW264.7; assay: Anti-inflammatory activity in LPS-induced ALI in mouse RAW264.7 cells assessed as decrease in Il-1 beta secretion level by ELISA method
[2] = test system: RAW264.7; assay: Anti-inflammatory activity in LPS-induced ALI in mouse RAW264.7 cells assessed as decrease in TNF-alpha secretion level by ELISA method
[3] = test system: RAW264.7; assay: Anti-inflammatory activity in LPS-induced ALI in mouse RAW264.7 cells assessed as decrease in IL-6 secretion level by ELISA method

Measured: Activity

O=C(O)c1cc(-c2ccc(C3CCNCC3)cc2)c2ccc(-c3ccc(C(F)(F)F)cc3)cc2c1 [PPTN]
active: [1] | [2] | [3]
